Measured values taken from ChEMBL document CHEMBL5154704 (Bioorg Med Chem, 2022).

Protein sequences, listed by entry. Tags and fused reporters are not part of them. Lines headed by an entry give the natural chain unless they say otherwise; changes in a name come on top.
UniProt P37231: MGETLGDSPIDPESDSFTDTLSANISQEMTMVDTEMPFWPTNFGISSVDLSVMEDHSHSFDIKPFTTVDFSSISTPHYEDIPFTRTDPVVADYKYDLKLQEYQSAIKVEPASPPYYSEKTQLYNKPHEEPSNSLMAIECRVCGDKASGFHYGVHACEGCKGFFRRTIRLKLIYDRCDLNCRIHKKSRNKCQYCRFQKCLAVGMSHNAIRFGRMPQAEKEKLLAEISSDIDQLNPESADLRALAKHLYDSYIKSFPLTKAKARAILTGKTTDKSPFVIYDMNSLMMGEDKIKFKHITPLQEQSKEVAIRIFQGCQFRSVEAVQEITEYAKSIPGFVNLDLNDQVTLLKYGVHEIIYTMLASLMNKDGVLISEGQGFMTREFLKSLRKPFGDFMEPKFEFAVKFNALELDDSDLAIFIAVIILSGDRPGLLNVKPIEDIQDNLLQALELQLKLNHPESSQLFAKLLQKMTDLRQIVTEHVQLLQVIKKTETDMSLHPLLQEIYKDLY

Tests used:
[1] = target: Peroxisome proliferator-activated receptor gamma (Homo sapiens) (UniProt P37231); experiment: Agonist activity at pBIND tagged human PPARgamma expressed in human HEK293 cells at 10 uM incubated for 18 hrs by dual luciferase reporter assay relative to control; type: cell-based
[2] = target: T1, Peroxisome proliferator-activated receptor alpha (Homo sapiens) (UniProt Q07869); experiment: Agonist activity at pBIND tagged human PPARalpha expressed in human HepG2 cells at 10 uM incubated for 18 hrs by dual luciferase reporter assay relative to control; type: cell-based
T1 sequence (whole entry): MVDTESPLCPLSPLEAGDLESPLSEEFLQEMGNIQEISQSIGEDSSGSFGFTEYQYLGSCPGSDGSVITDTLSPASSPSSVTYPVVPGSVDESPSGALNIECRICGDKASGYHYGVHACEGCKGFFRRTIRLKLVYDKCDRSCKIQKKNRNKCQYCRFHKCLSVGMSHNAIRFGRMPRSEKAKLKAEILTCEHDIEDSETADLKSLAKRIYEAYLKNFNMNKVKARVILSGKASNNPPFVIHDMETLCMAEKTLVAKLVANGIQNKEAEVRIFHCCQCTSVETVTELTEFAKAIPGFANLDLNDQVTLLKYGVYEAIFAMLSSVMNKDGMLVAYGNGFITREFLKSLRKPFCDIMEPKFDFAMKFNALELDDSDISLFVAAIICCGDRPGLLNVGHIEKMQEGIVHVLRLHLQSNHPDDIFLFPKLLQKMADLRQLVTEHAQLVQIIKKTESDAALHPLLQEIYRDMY

Structure (SMILES)	Activity [1] [%]	Activity [2] [%]
Cc1ccc(OCC(C)C)cc1-c1cccc(COc2ccc(OCC(=O)O)c(F)c2)c1	6	3
O=C(O)COc1ccc(OCc2cccc(-c3ccc(OCC4CC4)cc3)c2)cc1F	18	15
COc1ccc(C)c(-c2cccc(COc3ccc(OCC(=O)O)c(F)c3)c2)c1	12	17
Cc1ccc(OCC2CCC2)cc1-c1cccc(COc2ccc(OCC(=O)O)c(F)c2)c1	5	2
Cc1ccc(OCC2CC2)cc1-c1cccc(COc2ccc(OCC(=O)O)c(F)c2)c1	8	15
O=C(O)COc1ccc(OCc2cccc(-c3cccc(OCC4CC4)c3)c2)cc1F	10	16
CCCOc1ccc(C)c(-c2cccc(COc3ccc(OCC(=O)O)c(F)c3)c2)c1	7	5

The next lines start with the values.

Activity [1] [%]	Activity [2] [%]	Structure (SMILES)
18	20	COc1cccc(-c2cccc(COc3ccc(OCC(=O)O)c(F)c3)c2)c1
13	15	CCOc1cccc(-c2cccc(COc3ccc(OCC(=O)O)c(F)c3)c2)c1
8	13	CCOc1ccc(C)c(-c2cccc(COc3ccc(OCC(=O)O)c(F)c3)c2)c1
15	20	COc1ccc2cc(-c3cccc(COc4ccc(OCC(=O)O)c(F)c4)c3)ccc2c1
13	15	O=C(O)COc1ccc(OCc2cccc(-c3ccc4cc(OCC5CC5)ccc4c3)c2)cc1F
9	12	COc1ccc(-c2cccc(COc3ccc(OCC(=O)O)c(F)c3)c2)cc1
14	17	CCOc1ccc2cc(-c3cccc(COc4ccc(OCC(=O)O)c(F)c4)c3)ccc2c1
17	7	CCOc1ccc(-c2cccc(COc3ccc(OCC(=O)O)c(F)c3)c2)cc1
